Source: patent publication US12466849B2, “Anti-viral and anti-tumoral compounds” (YEDA RESEARCH AND DEVELOPMENT CO. LTD, priority 2020, dated 2025)

Test system: enterovirus-68 (EV-68)

CCOC(=O)c1ccc(OCCC2CCN(c3ccc(C)nn3)CC2)cc1 [Pirodavir]
SI: 110
